The target in test [1] is T1, BSA, in the presence of simeprevir (UniProt P02769 25-607).
T1 construct: also called BSA control
As to the kind of experiment: SPR (Biacore 8K): PRSIM_23 immobilised, BSA + 10 nM simeprevir injected.

Test [2] deals with T1, BSA, in the presence of simeprevir. As to the kind of experiment: SPR (Biacore 8K): PRSIM_57 immobilised, BSA + 10 nM simeprevir injected.

2 molecules from patent publication US20220380801A1, “TRIPARTITE SYSTEMS FOR PROTEIN DIMERIZATION AND METHODS OF USE” (AstraZeneca / MedImmune, published 2022) can be followed below.

B1: PRSIM_23 (designed binder)
chain: RLDAPSQIEVKDVTDTTALITWVDPRYDDIWWFELTYGIKDVPGDRTTIKLYLNDPYYSIGNLKPDTEYEVSLISYTGDSYSRSGSNPAKITFKTGL
In the case of B1, the binding result in test [1] is given as “no binding”.

B2: PRSIM_57 (scFv)
scFv: QVQLVQSGAEVKKPGSSVKVSCKASGGTFSSYAISWVRQAPGQGLEWMGGIIPIFGTANYAQKFQGRVTITADESTSTAYMELSSLRSEDTAVYYCARHTNYITVFDYWGQGTLVTVSSGGGGSGGGGSGGGGSAQSVLTQPPSASGTPGQRVTISCSGSSSNIGSNTVNWYQQLPGTAPKLLIYSNNQRPSGVPDRFSGSKSGTSASLAISGLQSEDEADYYCAAWDHHWEQVVFGGGTKLTVL
On to B2, for which the binding result in test [2] was “no binding”.
